# Results taken from US20130158024A1, “TRICYCLIC NECROSTATIN COMPOUNDS” (priority 2005, published 2013).
# System: L929 cells
# Experiment: TNFα-induced CICD of L929 cells, ATP assay
# Type: cell-based, mouse
structure (smiles),measurement,value
"O=[N+]([O-])c1ccc(-c2nc(-c3ccncc3)c(-c3ccc(F)cc3)[nH]2)cc1 [PD169316, reference compound]","protection of L929 cells from TNFα-induced CICD, in words",neither these compounds nor geldanamycin work in L929 cells
